“And” between values parts separate entries of the source, which are not always exact repeats. Equal entries are not always repeated. Where two headings read alike, the source gives them in different places.
What was measured:
[1] = test system: patients with primary aldosteronism
Protocol: (§1) A double-blind, randomized, Phase 2 trial was conducted between November 2019 and June 2022 at 11 centres in Italy, Switzerland and the Netherlands (NCT04007406). […] Patients requiring fixed-dose antihypertensive therapy continued treatment throughout the study; steroid therapies, β-adrenergic and renin-angiotensin-aldosterone system blockers were not permitted. At 14-day intervals, office blood pressures were recorded and blood samples were taken for measurement of steroid and peptide hormones and electrolytes at a central laboratory.
(§2) For all efficacy endpoints, changes from baseline were calculated from linear models and accompanied by 95% confidence intervals and p values. Log-transformed values were used for changes in ARR. The full analysis set (FAS) and safety set were defined as all randomized patients who received at least one dose of study drug.

[2] = test system: patients with primary aldosteronism; settings: all doses combined, n=35
Protocol: as §1
Plasma aldosterone and plasma renin concentration were measured centrally under GCP regulations using the Liaison® chemiluminescent immunoassay kit supplied by DiaSorin S.p.A. Italy. The system used specific monoclonal antibodies to prevent cross reactions with other major potential reactants in the serum samples. The monoclonal antibodies directed against specific epitopes of the renin molecule allowed accurate and sensitive quantification. The assays were performed according to the instructions provided by the manufacturer. […] The analytical sensitivity was <0.97 ng/ml. […] The analytical sensitivity was <0.53 IU/mL.
as §2

## (R)-(+)-5-(p-cyanophenyl)-5,6,7,8-tetrahydroimidazolium[1,5-a]pyridine dihydrogen phosphate [dexfadrostat phosphate]
[1]; N=35
  Serious TEAE, number of patients: 0
  TRAE and possibly TRAE: Vertigo, number of events: 1
  TRAE, % of patients: (20.0) %
[1]; N=35, 70-day study period
  Any TEAE, % of patients: (45.7) %
[1]; headaches
  AESI considered treatment-related or possibly treatment-related, number: two
[2]; Day 1 (baseline)
  aldosterone to renin ratio (ARR), mean: 17.58 (ng/dL)/(mU/L)
  aldosterone to renin ratio (ARR), median: 15.3 (ng/dL)/(mU/L) and 15.27 (ng/dL)/(mU/L)
[2]; Day 56
  aldosterone to renin ratio (ARR), mean: 2.18 (ng/dL)/(mU/L)
  aldosterone to renin ratio (ARR), median: 0.6 (ng/dL)/(mU/L) and 0.63 (ng/dL)/(mU/L)

Reference: patent US20260124184A1, “ONCE DAILY ALDOSTERONE SYNTHASE INHIBITOR (R)-(+)-5-(P-CYANOPHENYL)-5,6,7,8-TETRAHYDROIMIDAZO[L,5-A]PYRIDINE” (priority 2022, published 2026)
